Data as given in publication PMC7723054.
The list shows a part of the results.

T1: LIN28A (human?, UniProt Q9H9Z2 1-209)
T1 sequence: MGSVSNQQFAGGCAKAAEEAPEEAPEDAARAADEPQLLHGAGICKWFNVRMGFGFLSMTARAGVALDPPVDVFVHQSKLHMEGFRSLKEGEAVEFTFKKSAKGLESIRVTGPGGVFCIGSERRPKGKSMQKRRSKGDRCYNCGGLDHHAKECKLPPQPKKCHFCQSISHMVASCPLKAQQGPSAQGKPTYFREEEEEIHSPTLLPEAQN

T2: CIRBP (Homo sapiens, UniProt Q14011 1-172)
T2 sequence: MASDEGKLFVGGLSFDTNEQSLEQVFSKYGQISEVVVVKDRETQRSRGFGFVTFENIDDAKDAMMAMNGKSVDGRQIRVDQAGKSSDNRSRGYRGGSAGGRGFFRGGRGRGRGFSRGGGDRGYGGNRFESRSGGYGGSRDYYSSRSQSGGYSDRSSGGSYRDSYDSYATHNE

T3: DHX36 (Homo sapiens, UniProt Q9H2U1 1-1008)
T3 sequence: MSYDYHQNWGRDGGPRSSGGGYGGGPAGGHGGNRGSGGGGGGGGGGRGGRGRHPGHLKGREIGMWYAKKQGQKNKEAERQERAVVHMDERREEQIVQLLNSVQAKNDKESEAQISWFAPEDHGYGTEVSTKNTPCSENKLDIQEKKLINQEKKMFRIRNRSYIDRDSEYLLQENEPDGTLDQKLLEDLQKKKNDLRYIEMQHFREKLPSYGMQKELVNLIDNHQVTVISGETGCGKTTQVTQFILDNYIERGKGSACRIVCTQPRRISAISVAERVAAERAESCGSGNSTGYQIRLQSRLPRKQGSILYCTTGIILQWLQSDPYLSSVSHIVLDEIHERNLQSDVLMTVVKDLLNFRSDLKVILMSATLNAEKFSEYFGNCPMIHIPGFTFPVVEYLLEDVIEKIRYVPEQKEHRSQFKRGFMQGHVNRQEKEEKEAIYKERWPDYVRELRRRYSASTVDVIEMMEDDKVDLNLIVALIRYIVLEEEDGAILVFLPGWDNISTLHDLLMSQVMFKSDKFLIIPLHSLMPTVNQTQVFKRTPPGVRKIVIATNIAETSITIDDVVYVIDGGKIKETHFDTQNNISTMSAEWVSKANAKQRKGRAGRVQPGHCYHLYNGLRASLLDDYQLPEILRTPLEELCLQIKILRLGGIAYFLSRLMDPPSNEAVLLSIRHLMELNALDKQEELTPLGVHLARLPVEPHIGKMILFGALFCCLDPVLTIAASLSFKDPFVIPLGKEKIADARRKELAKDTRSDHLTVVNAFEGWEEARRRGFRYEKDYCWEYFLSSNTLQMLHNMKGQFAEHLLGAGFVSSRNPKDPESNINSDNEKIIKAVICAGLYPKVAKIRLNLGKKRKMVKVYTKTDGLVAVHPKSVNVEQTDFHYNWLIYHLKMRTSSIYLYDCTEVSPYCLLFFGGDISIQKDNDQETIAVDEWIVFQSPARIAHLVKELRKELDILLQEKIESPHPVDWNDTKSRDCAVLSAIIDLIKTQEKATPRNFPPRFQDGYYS

B1: hsa-mir-7150 (structured_RNA)
RNA: GGGACAGUAACCAAGCCCUGUAUGGCCGGGUGUACGAAGUUUCAGCGGUAAGGUCUUUCAGCCGCUGAAGCUUCGUGCAC
B2: hsa-mir-5189 (structured_RNA)
RNA: GGGAAGUUAUGUGAAUCGAUGAAAACGUGGUGUACGAAGUUUCAGCGACAGGCUGGCCUCUGGAUGACCUGCGCUGAAGCUUCGUGCAC
B3: hsa-mir-4659b (structured_RNA)
RNA: GGGAACGACGGGUAGUGUAUAUAUGAUCGGUGUACGAAGUUUCAGCAGAAAAUUUUUCUCCAAAGUUUUCUGCUGAAGCUUCGUGCAC
B4: hsa-mir-6785 (structured_RNA)
RNA: GGGAAAGAUAUUACAGCGAACACGUACGGGUGUACGAAGUUUCAGCUGGUGGGAGAGGAGCCCCACUGUGGAAGUCUGACCCCCACAGCUGAAGCUUCGUGCAC
B5: hsa-mir-548ad (structured_RNA)
RNA: GGGAGCUCUAGCAGCACCAAGUAGUAUAGGUGUACGAAGUUUCAGCUUUUGAAAGUAACUUGGCGAAAGCUGAAGCUUCGUGCAC
B6: hsa-mir-145 (structured_RNA)
RNA: GGGAGACCACGGUAGGCCCGUAUAACACGGUGUACGAAGUUUCAGCAUCCCUUAGAUGCUAAGAUGGGGAUGCUGAAGCUUCGUGCAC
B7: hsa-mir-4267 (structured_RNA)
RNA: GGGAAAAGUAGGUAGGGAUACACCAAGAGGUGUACGAAGUUUCAGCCUGGGGGAAGGCUCCAGACCCCAGCCUGCUGAAGCUUCGUGCAC
B8: hsa-mir-3927 (structured_RNA)
RNA: GGGAGAUAUAAGGAGGGUAUAACCGUCUGGUGUACGAAGUUUCAGCCCUGUCCUAUGACAAACAUGGCAGGGCUGAAGCUUCGUGCAC
B9: hsa-mir-585 (structured_RNA)
RNA: GGGAAUAUAAGACUGGUGAGUCGCCACUGGUGUACGAAGUUUCAGCCCCAGAGAAAGCCUGAACGUUGGGGCUGAAGCUUCGUGCAC
B10: hsa-mir-8065 (structured_RNA)
RNA: GGGAGAGUGACCCAAGACUGCCUUUAACGGUGUACGAAGUUUCAGCUGUAUUUUUCAGCAAGGCAAGGGCUUUGAUGUCUUGUAGCUGAAGCUUCGUGCAC
B11: hsa-mir-9-2 (structured_RNA)
RNA: GGGAACUUAUGGCGCACAAUGGUAGGCGGGUGUACGAAGUUUCAGCGUAUGAGUGUAUUGGUCUUCAUAAGCUGAAGCUUCGUGCAC
B12: hsa-mir-526a-1 (structured_RNA)
RNA: GGGACCAGACUACGGGAAAUUAAGUCUAGGUGUACGAAGUUUCAGCUCUGUUGCUUGAAAGAAGAGAGCUGAAGCUUCGUGCAC
B13: hsa-mir-376c (structured_RNA)
RNA: GGGAAAACUGUGCCUCGGACGACGUUAUGGUGUACGAAGUUUCAGCUGUUUAUGUUAUUUAUGGUUAAACAGCUGAAGCUUCGUGCAC

Columns and labels:
Assay in all cases: FOREST: bead pull-down of RNA structure library v1, barcode microarray; U1A/LIN28A: 20 mM HEPES pH 7.5, 80 mM KCl, 20 mM NaCl, 10% glycerol, 2 mM DTT, 0.1 ug/uL BSA, 4 C; BG4/CIRBP/DHX36: 10 mM Tris-HCl pH 7.5, 100 mM KCl (or LiCl),; high values mean tight binding
LIN28A = biological target: T1, LIN28A
CIRBP = biological target: T2, CIRBP
DHX36 = biological target: T3, DHX36

| Binder | binding signal (LIN28A) [z-score] | binding signal (CIRBP) [z-score] | binding signal (DHX36) [z-score] |
| --- | --- | --- | --- |
| B1 | 1.41 | 0.292 | -0.396 |
| B2 | 1.41 | 3.72 | 1.2 |
| B3 | 1.4 | 0.716 | 1.21 |
| B4 | 1.35 | 2.03 | 0.942 |
| B5 | 1.35 | 0.0801 | -0.51 |
| B6 | 1.35 | 0.578 | 0.501 |
| B7 | 1.34 | 0.422 | 0.266 |
| B8 | 1.33 | 1.16 | 0.266 |
| B9 | 1.33 | 1 | -0.00929 |
| B10 | 1.31 | 0.576 | -0.0834 |
| B11 | 1.31 | 0.83 | 1.14 |
| B12 | 1.3 | 0.0186 | 1.2 |
| B13 | 1.3 | 0.259 | 0.0421 |
